Results reported in PubChem BioAssay (NCI).
Several values for one entry are separate records, joined by “and”; a condition that tells them apart may be missing. Equal entries are not always repeated. The list shows a part of the results, in another mix than the full data.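 Note: values are percent growth. 100 is the growth of untreated cells, values between 100 and 0 indicate rising inhibition; between -100 and 0 indicates cell death.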 Activity calls are given as the source filed them. How the source made its calls: active means growth percent below 10; inactive means the rest.

Assays:
Assay in all cases: NCI-60 one-dose screen, 48 h (100 = growth as untreated, 0 = no growth, -100 = all killed)
Conditions in all cases: 10 µM
NCI-H23 lung = tested on: NCI-H23 lung
NCI-H226 lung = tested on: NCI-H226 lung
NCI-H322M lung = tested on: NCI-H322M lung
HOP-62 NSCLC = tested on: HOP-62 NSCLC
NCI-H460 lung = tested on: NCI-H460 lung
HOP-92 NSCLC = tested on: HOP-92 NSCLC
NCI-H522 lung = tested on: NCI-H522 lung
A549/ATCC NSCLC = tested on: A549/ATCC NSCLC
786-0 renal = tested on: 786-0 renal
COLO 205 colon = tested on: COLO 205 colon
DU-145 prostate = tested on: DU-145 prostate
K-562 leukemia = tested on: K-562 leukemia
MALME-3M melanoma = tested on: MALME-3M melanoma
MDA-MB-231 breast = tested on: MDA-MB-231 breast
RXF 393 renal = tested on: RXF 393 renal
SF-268 CNS = tested on: SF-268 CNS
SF-295 CNS = tested on: SF-295 CNS
SF-539 CNS = tested on: SF-539 CNS
UACC-257 melanoma = tested on: UACC-257 melanoma
M14 melanoma = tested on: M14 melanoma

Measured: growth

CCCSP(=O)(CCl)N(CCCl)CCCl (configuration not stated)
inactive: NCI-H23 lung 102% | NCI-H226 lung 96.8% | NCI-H322M lung 101% | HOP-62 NSCLC 113% | NCI-H460 lung 96.6% | HOP-92 NSCLC 80.3% | NCI-H522 lung 74% | A549/ATCC NSCLC 95.8% | 786-0 renal 103% | COLO 205 colon 110% | DU-145 prostate 108% | K-562 leukemia 104% | MALME-3M melanoma 106% | MDA-MB-231 breast 107% | RXF 393 renal 103% | SF-268 CNS 105% | SF-295 CNS 103% | SF-539 CNS 90% | UACC-257 melanoma 83% | M14 melanoma 100%

O=C1C(=O)N(CN(CCCl)CCCl)c2ccccc21
inactive: NCI-H23 lung 92% | NCI-H226 lung 103% | NCI-H322M lung 107% | HOP-62 NSCLC 101% | NCI-H460 lung 105% | HOP-92 NSCLC 107% | NCI-H522 lung 77.1% | A549/ATCC NSCLC 111% | 786-0 renal 104% | COLO 205 colon 112% | DU-145 prostate 111% | K-562 leukemia 88.3% | MALME-3M melanoma 99.7% | MDA-MB-231 breast 103% | RXF 393 renal 116% | SF-268 CNS 104% | SF-539 CNS 101% | UACC-257 melanoma 112% | M14 melanoma 97.5%

COc1ccc(C(=O)O)cc1N(CCCl)CCCl
inactive: NCI-H23 lung 101% | NCI-H226 lung 99.5% | NCI-H322M lung 104% | HOP-62 NSCLC 104% | NCI-H460 lung 95.5% | HOP-92 NSCLC 86.1% | NCI-H522 lung 77.1% | A549/ATCC NSCLC 97.5% | 786-0 renal 94.9% | COLO 205 colon 111% | DU-145 prostate 112% | K-562 leukemia 94.2% | MALME-3M melanoma 92.8% | MDA-MB-231 breast 118% | RXF 393 renal 108% | SF-268 CNS 88.6% | SF-295 CNS 87.6% | SF-539 CNS 93.5% | UACC-257 melanoma 108% | M14 melanoma 98.8%

Cc1cccc(C(=O)N(CCCl)CCCl)c1
inactive: NCI-H23 lung 114% | NCI-H226 lung 97.7% | NCI-H322M lung 100% | HOP-62 NSCLC 112% | NCI-H460 lung 132% | HOP-92 NSCLC 80.7% | NCI-H522 lung 91.4% | A549/ATCC NSCLC 110% | 786-0 renal 103% | COLO 205 colon 125% | DU-145 prostate 115% | K-562 leukemia 106% | MALME-3M melanoma 98.1% | MDA-MB-231 breast 119% | RXF 393 renal 101% | SF-268 CNS 110% | SF-539 CNS 92.7% | UACC-257 melanoma 117% | M14 melanoma 104%

Oc1ccc(Br)cc1CN(CCCl)CCCl
inactive: NCI-H23 lung 48.3% | NCI-H226 lung 91.4% | NCI-H322M lung 114% | HOP-62 NSCLC 52.8% | NCI-H460 lung 18.8% | HOP-92 NSCLC 90.5% | NCI-H522 lung 53.3% | A549/ATCC NSCLC 62.6% | 786-0 renal 36.4% | COLO 205 colon 85.1% | DU-145 prostate 38.8% | K-562 leukemia 61.1% | MALME-3M melanoma 95.8% | MDA-MB-231 breast 104% | RXF 393 renal 88.4% | SF-268 CNS 49.4% | SF-295 CNS 35.2% | SF-539 CNS 43.8% | UACC-257 melanoma 97.1% | M14 melanoma 51.9%

N#CC(C#N)=Cc1ccc2c(c1)OCO2
inactive: NCI-H23 lung 104% and 102% | NCI-H226 lung 96.6% and 89.7% | NCI-H322M lung 96.7% and 110% | HOP-62 NSCLC 108% and 84.7% | NCI-H460 lung 102% and 103% | HOP-92 NSCLC 125% | NCI-H522 lung 107% and 94% | A549/ATCC NSCLC 107% and 94.6% | 786-0 renal 105% and 97.8% | COLO 205 colon 117% and 115% | DU-145 prostate 107% and 108% | K-562 leukemia 91.3% and 105% | MALME-3M melanoma 91.7% and 103% | MDA-MB-231 breast 116% | RXF 393 renal 96% | SF-268 CNS 100% and 98.6% | SF-295 CNS 108% and 104% | SF-539 CNS 97.5% and 95.3% | UACC-257 melanoma 95.8% and 98.2% | M14 melanoma 98.7% and 95.9%

CC(C)(C)C(=O)CBr
inactive: NCI-H23 lung 107% | NCI-H226 lung 93.7% | NCI-H322M lung 101% | HOP-62 NSCLC 104% | NCI-H460 lung 110% | A549/ATCC NSCLC 106% | 786-0 renal 93.6% | COLO 205 colon 112% | DU-145 prostate 106% | K-562 leukemia 96.7% | MALME-3M melanoma 101% | MDA-MB-231 breast 104% | RXF 393 renal 104% | SF-268 CNS 100% | SF-295 CNS 102% | SF-539 CNS 101% | UACC-257 melanoma 104% | M14 melanoma 99.3%

CCCCOc1ccc(N(CCCl)CCCl)cc1
inactive: NCI-H23 lung 80.7% | NCI-H226 lung 100% | NCI-H322M lung 103% | HOP-62 NSCLC 73.1% | HOP-92 NSCLC 99.6% | NCI-H522 lung 81.2% | A549/ATCC NSCLC 93.4% | 786-0 renal 107% | COLO 205 colon 110% | DU-145 prostate 103% | K-562 leukemia 100% | MALME-3M melanoma 99.8% | MDA-MB-231 breast 111% | RXF 393 renal 109% | SF-268 CNS 96.3% | SF-295 CNS 105% | SF-539 CNS 108% | UACC-257 melanoma 97.8% | M14 melanoma 106%

N#CC1(Nc2ccccc2)CCN(Cc2ccccc2)CC1
inactive: NCI-H23 lung 91.3% | NCI-H226 lung 100% | NCI-H322M lung 307% | HOP-62 NSCLC 84.4% | NCI-H460 lung 101% | HOP-92 NSCLC 85.8% | NCI-H522 lung 84.2% | A549/ATCC NSCLC 87.7% | 786-0 renal 69.5% | DU-145 prostate 109% | K-562 leukemia 162% | MALME-3M melanoma 228% | MDA-MB-231 breast 99% | RXF 393 renal 100% | SF-268 CNS 99.5% | SF-295 CNS 92.7% | SF-539 CNS 93.9% | UACC-257 melanoma 106% | M14 melanoma 92.3%

COc1cccc(N(CCCl)CCCl)c1OC
inactive: NCI-H23 lung 74.3% | NCI-H226 lung 85.9% | NCI-H322M lung 132% | HOP-62 NSCLC 56.2% | NCI-H460 lung 28.1% | NCI-H522 lung 62.4% | 786-0 renal 94.4% | COLO 205 colon 86.9% | DU-145 prostate 96.8% | K-562 leukemia 83.8% | MALME-3M melanoma 104% | MDA-MB-231 breast 89.4% | RXF 393 renal 93.5% | SF-268 CNS 69% | SF-295 CNS 70.4% | SF-539 CNS 55.5% | UACC-257 melanoma 97.9% | M14 melanoma 83.1%

Oc1ccc(O)c(CN(CCCl)CCCl)c1
inactive: NCI-H23 lung 105% | NCI-H226 lung 96% | NCI-H322M lung 99.3% | HOP-62 NSCLC 96.9% | NCI-H460 lung 102% | A549/ATCC NSCLC 104% | 786-0 renal 117% | COLO 205 colon 97.3% | DU-145 prostate 108% | K-562 leukemia 96.4% | MALME-3M melanoma 94.5% | MDA-MB-231 breast 98.6% | RXF 393 renal 114% | SF-268 CNS 94.5% | SF-295 CNS 102% | SF-539 CNS 94.2% | UACC-257 melanoma 128% | M14 melanoma 103%

Cc1cc(O)c(CN(CC(C)Cl)CC(C)Cl)cc1C (configuration not stated)
inactive: NCI-H23 lung 105% | NCI-H226 lung 107% | NCI-H322M lung 100% | HOP-62 NSCLC 86.2% | NCI-H460 lung 111% | NCI-H522 lung 93.8% | A549/ATCC NSCLC 111% | 786-0 renal 105% | COLO 205 colon 119% | DU-145 prostate 113% | MALME-3M melanoma 101% | MDA-MB-231 breast 110% | RXF 393 renal 122% | SF-268 CNS 100% | SF-295 CNS 100% | SF-539 CNS 97.2% | UACC-257 melanoma 108% | M14 melanoma 102%

Cn1c(=O)[nH]cc(N(CCCl)CCCl)c1=O
inactive: NCI-H23 lung 81.4% | NCI-H322M lung 128% | HOP-62 NSCLC 103% | NCI-H460 lung 34.2% | NCI-H522 lung 91.2% | A549/ATCC NSCLC 73.4% | 786-0 renal 94.5% | COLO 205 colon 101% | DU-145 prostate 97.2% | K-562 leukemia 86.7% | MALME-3M melanoma 130% | MDA-MB-231 breast 85.7% | RXF 393 renal 100% | SF-268 CNS 71.9% | SF-295 CNS 96.1% | SF-539 CNS 80.3% | UACC-257 melanoma 90.6% | M14 melanoma 101%

ClCCSC(SCCCl)=C(SCCCl)SCCCl
inactive: NCI-H23 lung 54.9% | NCI-H226 lung 82.7% | NCI-H322M lung 92.2% | HOP-62 NSCLC 72.3% | NCI-H460 lung 31% | HOP-92 NSCLC 85.4% | NCI-H522 lung 110% | A549/ATCC NSCLC 72.1% | 786-0 renal 77.1% | COLO 205 colon 87.9% | DU-145 prostate 72.3% | K-562 leukemia 94.2% | MALME-3M melanoma 87.2% | RXF 393 renal 93.5% | SF-295 CNS 65.8% | SF-539 CNS 69.9% | UACC-257 melanoma 105% | M14 melanoma 82.1%

C[N+](C)(CCCl)CCCl
inactive: NCI-H23 lung 118% | NCI-H226 lung 104% | NCI-H322M lung 110% | HOP-62 NSCLC 107% | NCI-H460 lung 106% | A549/ATCC NSCLC 97.3% | 786-0 renal 108% | COLO 205 colon 116% | DU-145 prostate 106% | K-562 leukemia 110% | MALME-3M melanoma 117% | MDA-MB-231 breast 104% | RXF 393 renal 115% | SF-268 CNS 104% | SF-295 CNS 150% | SF-539 CNS 97.2% | UACC-257 melanoma 92% | M14 melanoma 108%
